Structures are written as SMILES.

Sequences of proteins named here, by UniProt entry; tags and fusion partners are left off. A change or cut given only in a name is not applied to a line headed by its entry. Residues count along the entry.
UniProt P00520, 242-493 T315I limits assumed: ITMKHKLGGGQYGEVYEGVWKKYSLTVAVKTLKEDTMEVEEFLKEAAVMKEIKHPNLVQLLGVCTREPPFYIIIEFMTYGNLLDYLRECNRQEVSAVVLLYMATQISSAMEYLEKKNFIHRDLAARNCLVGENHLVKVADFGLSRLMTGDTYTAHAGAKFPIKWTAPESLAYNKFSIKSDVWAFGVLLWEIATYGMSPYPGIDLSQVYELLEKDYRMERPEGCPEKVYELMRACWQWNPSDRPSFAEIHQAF
UniProt P00519, whole entry: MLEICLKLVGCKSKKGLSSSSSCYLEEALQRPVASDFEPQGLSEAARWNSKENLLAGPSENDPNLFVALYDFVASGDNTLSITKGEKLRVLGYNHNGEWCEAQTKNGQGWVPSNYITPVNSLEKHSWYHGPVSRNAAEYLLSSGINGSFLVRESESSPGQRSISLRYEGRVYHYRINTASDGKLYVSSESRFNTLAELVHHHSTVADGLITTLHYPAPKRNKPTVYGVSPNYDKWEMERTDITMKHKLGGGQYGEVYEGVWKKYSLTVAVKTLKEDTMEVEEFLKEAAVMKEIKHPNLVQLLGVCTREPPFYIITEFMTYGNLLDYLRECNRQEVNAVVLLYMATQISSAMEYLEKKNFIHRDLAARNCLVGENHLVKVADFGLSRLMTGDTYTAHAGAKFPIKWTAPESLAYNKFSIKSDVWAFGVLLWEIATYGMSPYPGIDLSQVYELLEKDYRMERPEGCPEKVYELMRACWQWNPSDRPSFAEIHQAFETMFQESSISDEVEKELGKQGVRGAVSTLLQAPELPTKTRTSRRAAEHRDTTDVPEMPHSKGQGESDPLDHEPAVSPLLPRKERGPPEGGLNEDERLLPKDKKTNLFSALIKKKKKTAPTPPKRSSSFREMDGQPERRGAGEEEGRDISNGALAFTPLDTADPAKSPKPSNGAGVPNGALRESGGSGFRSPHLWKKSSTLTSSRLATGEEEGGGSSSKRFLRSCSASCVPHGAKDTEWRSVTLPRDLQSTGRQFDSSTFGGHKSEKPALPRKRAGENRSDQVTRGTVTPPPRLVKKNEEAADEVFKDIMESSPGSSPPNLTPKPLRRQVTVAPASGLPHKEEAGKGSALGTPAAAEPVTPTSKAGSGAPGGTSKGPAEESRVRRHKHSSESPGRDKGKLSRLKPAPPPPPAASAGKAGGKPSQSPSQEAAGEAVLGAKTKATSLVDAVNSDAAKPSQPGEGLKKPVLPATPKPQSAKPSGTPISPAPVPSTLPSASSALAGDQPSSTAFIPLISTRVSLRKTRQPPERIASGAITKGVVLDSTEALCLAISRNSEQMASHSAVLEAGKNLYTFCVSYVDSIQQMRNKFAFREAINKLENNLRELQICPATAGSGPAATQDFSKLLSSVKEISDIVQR
UniProt P00519, whole entry T315I: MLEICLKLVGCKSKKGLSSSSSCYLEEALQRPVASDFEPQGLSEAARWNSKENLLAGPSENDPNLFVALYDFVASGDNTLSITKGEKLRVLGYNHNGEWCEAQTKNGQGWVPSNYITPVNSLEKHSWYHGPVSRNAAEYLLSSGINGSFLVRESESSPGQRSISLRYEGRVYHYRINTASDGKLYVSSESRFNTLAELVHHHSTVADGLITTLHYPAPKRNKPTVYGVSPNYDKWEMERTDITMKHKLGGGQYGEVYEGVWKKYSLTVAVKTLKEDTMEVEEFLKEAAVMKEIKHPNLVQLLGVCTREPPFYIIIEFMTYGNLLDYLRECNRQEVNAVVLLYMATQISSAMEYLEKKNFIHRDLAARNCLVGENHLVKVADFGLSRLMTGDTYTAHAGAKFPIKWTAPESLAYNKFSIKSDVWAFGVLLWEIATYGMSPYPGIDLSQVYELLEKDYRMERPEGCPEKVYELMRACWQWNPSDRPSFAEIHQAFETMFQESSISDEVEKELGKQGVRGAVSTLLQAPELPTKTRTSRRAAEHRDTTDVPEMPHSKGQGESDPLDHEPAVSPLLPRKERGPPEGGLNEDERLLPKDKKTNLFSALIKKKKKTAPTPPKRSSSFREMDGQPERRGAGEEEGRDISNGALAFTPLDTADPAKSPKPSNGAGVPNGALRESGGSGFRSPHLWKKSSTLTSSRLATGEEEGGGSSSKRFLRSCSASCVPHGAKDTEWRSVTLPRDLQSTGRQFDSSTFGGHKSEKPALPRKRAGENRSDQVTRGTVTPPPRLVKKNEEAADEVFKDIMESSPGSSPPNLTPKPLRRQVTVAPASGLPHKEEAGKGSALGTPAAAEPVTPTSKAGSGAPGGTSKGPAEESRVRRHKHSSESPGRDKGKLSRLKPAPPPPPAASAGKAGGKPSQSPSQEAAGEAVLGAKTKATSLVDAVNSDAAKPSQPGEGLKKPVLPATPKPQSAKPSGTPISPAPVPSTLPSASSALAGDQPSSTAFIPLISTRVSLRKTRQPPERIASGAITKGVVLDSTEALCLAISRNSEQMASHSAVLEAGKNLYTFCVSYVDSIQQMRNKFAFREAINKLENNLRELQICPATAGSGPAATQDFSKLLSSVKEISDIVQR

In assay [1] the target is purified and unphosphorylated T315I Abl kinase domain (ABL_T315I_0P) (Mus musculus, UniProt P00520, T315I). The assay can be described thus: c-Abl T315I (unphosphorylated kinase domain) pyruvate kinase/lactate dehydrogenase coupled enzyme assay. Particulars: read-out: ABL_T315I_0P (IC50), 10 μM ATP. An excerpt:
Although the first of these examples uses the kinase domain of a mutant form of Abl T315I (“Abl T315I KD”), the kinase assays may use various forms of mutant and wild type enzymes, including, for example, the entire protein, the kinase domain, or a portion thereof (e.g. Abl Y393F). The kinases used in the assays may also be of varying phosphorylation states. In the c-Abl example, a mutant kinase at a zero phosphorylation state was used.
c-Abl Pyruvate Kinase/Lactate Dehydrogenase Coupled Enzyme Assay
In the c-Abl Pyruvate Kinase (PK)/Lactate Dehydrogenase (LDH) Coupled Assay the protein kinase dependant phosphorylation of a substrate peptide was coupled to the oxidation of NADH. The oxidation of NADH to NAD+ was detected by monitoring a decrease in absorbance at 340 nm. […]
Activity was measured by following the time-dependent loss of NADH by absorbance spectroscopy at 340 nm. The linear portion of the resulting progress curve was then analyzed by linear regression to get the activity in absorbance units/time, reported as the slope of that best fit line (moles/unit time can be calculated from using molar extinction coefficient for NADH at 340 nm, 6250M^−1 cm^−1).
Screening data was evaluated using the equation: Z′=1-[3*(σ++σ−)/|μ+−μ−|] […]

The target in the next assay is ABL T315I BAF3 cells (Homo sapiens, UniProt P00519, T315I, cells depend on it). The experiment in a line: 96-well XTT cell survival assay, BaF3 ABL T315I. As to conditions: read-out: CELL BIO ABL T315I BAF3 XTT (IC50), 72 hours. The method, then:
(§1) MV4-11 and THP cells were maintained in Iscove's Modified Dulbecco's Medium supplemented with 10% fetal bovine serum (FBS) and penicillin/streptomycin, Ba/F3 cells were maintained in RPMI 1640 supplemented with 10% FBS, penicillin/streptomycin and 5 ng/ml recombinant mouse IL-3.
(§2) Compounds were tested in the following assays in duplicate.
(§3) 96-well XTT assay: Cells (e.g. BaF3 315I, M3511, or E255K cells) were grown in growth media containing various concentrations of compounds (duplicates) on a 96-well plate for 72 hours at 37° C. The starting cell number was 5000-8000 cells per well and volume was 120 μl. At the end of the 72-hour incubation, 40 μl of XTT labeling mixture (50:1 solution of sodium 3′-[1-(phenylamino-carbonyl)-3,4-tetrazolium]-bis(4-methoxy-6-nitro) benzene sulfonic acid hydrate and Electron-coupling reagent: PMS (N-methyl dibenzopyrazine methyl sulfate) were added to each well of the plate. After an additional 2-6 hours of incubation at 37° C., the absorbance reading at 405 nm with background correction at 650 nm was measured with a spectrophotometer.
(Formazan colour is commonly taken as a measure of viable cells.)

For a further assay, the target named is ABL P210WT BAF3 cells (Homo sapiens, UniProt P00519). The experiment in a line: 96-well XTT cell survival assay, BaF3 ABL P210WT. As to conditions: read-out: CELL BIO ABL P210WT BAF3 XTT (IC50), ABL P210 WT, 72 hours. As to the method:
as §1, §2, §3

As to `CN(C)C(=O)C(O)c1cncc(-c2cnc3[nH]cc4c3c2OCCc2ccccc2-4)c1` (stereo not drawn), the IC50 (as a rule, the concentration that gives 50% inhibition) in assay [1] lay in the range of 10 to 100 nM. For the same compound, the GI50 on ABL T315I BAF3 cells and at ABL P210WT BAF3 cells was greater than 1000 nM each time.

Values taken from patent US8158647B2, “Substituted pyrrolopyridines and pyrazolopyridines as kinase modulators” (SGX Pharmaceuticals, Inc., priority 2007, dated 2012).
